Assay results reported in paper PMC7723054.
This is one part of the list.

T1: LIN28A (human?, UniProt Q9H9Z2 1-209)
T1 sequence: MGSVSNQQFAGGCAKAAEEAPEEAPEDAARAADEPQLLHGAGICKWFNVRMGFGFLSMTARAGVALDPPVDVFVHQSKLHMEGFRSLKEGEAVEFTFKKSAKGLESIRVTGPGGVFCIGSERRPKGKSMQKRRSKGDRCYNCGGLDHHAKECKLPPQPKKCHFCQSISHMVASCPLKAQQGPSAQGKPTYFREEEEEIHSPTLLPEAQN

T2: CIRBP (Homo sapiens, UniProt Q14011 1-172)
T2 sequence: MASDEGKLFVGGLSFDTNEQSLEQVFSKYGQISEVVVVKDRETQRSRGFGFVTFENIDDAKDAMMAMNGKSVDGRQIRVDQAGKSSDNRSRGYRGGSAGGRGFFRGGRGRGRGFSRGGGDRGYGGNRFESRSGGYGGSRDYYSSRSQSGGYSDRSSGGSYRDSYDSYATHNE

T3: DHX36 (Homo sapiens, UniProt Q9H2U1 1-1008)
T3 sequence: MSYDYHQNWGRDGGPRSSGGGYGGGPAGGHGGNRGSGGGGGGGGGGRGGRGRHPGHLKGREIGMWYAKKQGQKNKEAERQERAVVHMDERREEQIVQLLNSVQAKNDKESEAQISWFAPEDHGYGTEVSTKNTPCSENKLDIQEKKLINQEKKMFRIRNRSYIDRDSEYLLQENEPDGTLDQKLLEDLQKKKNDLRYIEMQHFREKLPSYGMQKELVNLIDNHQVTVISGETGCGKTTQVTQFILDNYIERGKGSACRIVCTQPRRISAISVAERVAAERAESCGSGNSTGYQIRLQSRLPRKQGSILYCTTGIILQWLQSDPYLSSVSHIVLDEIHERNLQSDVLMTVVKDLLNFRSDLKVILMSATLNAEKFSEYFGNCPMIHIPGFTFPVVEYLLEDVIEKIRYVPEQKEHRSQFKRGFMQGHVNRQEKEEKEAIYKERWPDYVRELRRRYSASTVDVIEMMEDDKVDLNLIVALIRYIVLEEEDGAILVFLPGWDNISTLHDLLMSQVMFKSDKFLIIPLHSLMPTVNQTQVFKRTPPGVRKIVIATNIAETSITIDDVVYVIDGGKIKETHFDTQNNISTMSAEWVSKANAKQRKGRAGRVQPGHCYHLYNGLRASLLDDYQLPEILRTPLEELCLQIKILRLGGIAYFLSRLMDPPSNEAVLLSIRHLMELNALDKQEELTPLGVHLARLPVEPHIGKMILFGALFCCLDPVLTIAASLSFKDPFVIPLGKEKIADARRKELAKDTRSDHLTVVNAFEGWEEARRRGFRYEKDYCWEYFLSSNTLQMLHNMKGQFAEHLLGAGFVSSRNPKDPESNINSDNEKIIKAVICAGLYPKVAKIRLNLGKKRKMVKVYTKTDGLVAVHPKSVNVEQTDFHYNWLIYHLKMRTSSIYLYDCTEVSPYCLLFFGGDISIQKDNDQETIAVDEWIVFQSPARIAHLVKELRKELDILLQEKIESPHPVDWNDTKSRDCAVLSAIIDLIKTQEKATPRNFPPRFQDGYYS

B1: hsa-mir-4323 (structured_RNA)
RNA: GGGAAUGCGUAGCCCGUCCCCAGUUAAAGGUGUACGAAGUUUCAGCGUGUCUGGAGACGCCAGGCAGCGCUGAAGCUUCGUGCAC
B2: hsa-mir-4440 (structured_RNA)
RNA: GGGAACGUAGGCUUGUGACUAAAACAACGGUGUACGAAGUUUCAGCUGGCUUGCACCGUGACUCCCUCUCACCAAGCAAGUGUCGCUGAAGCUUCGUGCAC
B3: hsa-mir-4800 (structured_RNA)
RNA: GGGAGCUAGCGUUUAACCCCUAACUGGCGGUGUACGAAGUUUCAGCGAAGGAAGGCAAGGCUGUCUGUCCAUCGCUGAAGCUUCGUGCAC
B4: hsa-mir-588 (structured_RNA)
RNA: GGGACGCAGUACCGAGCUGAAAACACAGGGUGUACGAAGUUUCAGCGAACACUAUUCCAUUGUGUUCGCUGAAGCUUCGUGCAC
B5: hsa-mir-4669 (structured_RNA)
RNA: GGGAAGUGCUAUCACCAAGCCUCUACGCGGUGUACGAAGUUUCAGCUCCAGGCAUCUGUGUCUGGCUGAAGCUUCGUGCAC
B6: hsa-mir-6837 (structured_RNA)
RNA: GGGAACUAUAUGGCCGCGCCUGUCAUUCGGUGUACGAAGUUUCAGCAAUGUCAGGGCCACCCCUGACCUUGCUGAAGCUUCGUGCAC
B7: hsa-mir-5587 (structured_RNA)
RNA: GGGACCCUCAACAUGGGGUAUCCCUGGAGGUGUACGAAGUUUCAGCGGACUCAGCCCUGUGCUGAGCCCGCUGAAGCUUCGUGCAC
B8: hsa-mir-5195 (structured_RNA)
RNA: GGGAUGGCCGGGAACACCUACUUUCAGUGGUGUACGAAGUUUCAGCGGAUGGGAGACCUGACCCAUCCGCUGAAGCUUCGUGCAC
B9: hsa-mir-6886 (structured_RNA)
RNA: GGGAUGGCAACGGAGGACACCCACUAUAGGUGUACGAAGUUUCAGCGGCUCCUGGCGCUGAUGCCGCUGAAGCUUCGUGCAC
B10: hsa-mir-6722 (structured_RNA)
RNA: GGGAAAUCGUUGGCGAGUACGAAAACCCGGUGUACGAAGUUUCAGCAUGCAUGGCUGGUGGCGGCGUGCAGGCUGAAGCUUCGUGCAC
B11: hsa-mir-454 (structured_RNA)
RNA: GGGAAGAGACGUUCCAGUUCGCUCUCCCGGUGUACGAAGUUUCAGCCUCUGCUGUGUAAAUAGUUCUGAGUAGUGCUGAAGCUUCGUGCAC
B12: hsa-mir-1273c (structured_RNA)
RNA: GGGACGGCAGAGAAGGUAUGCCAUUAAUGGUGUACGAAGUUUCAGCUGUCUUUUUUUUUUUCUGAGACAGCUGAAGCUUCGUGCAC
B13: hsa-mir-378a (structured_RNA)
RNA: GGGAAAUGCACAUAGAGUGUCCUCCUUGGGUGUACGAAGUUUCAGCGUGUGUUACCUAGAAAUAGCACUGCUGAAGCUUCGUGCAC

Biological target: T1, LIN28A
Assay: FOREST: bead pull-down of RNA structure library v1, barcode microarray; U1A/LIN28A: 20 mM HEPES pH 7.5, 80 mM KCl, 20 mM NaCl, 10% glycerol, 2 mM DTT, 0.1 ug/uL BSA, 4 C; BG4/CIRBP/DHX36: 10 mM Tris-HCl pH 7.5, 100 mM KCl (or LiCl),; high values mean tight binding

Binder	binding signal [z-score]
B1	-0.721
B2	-0.722
B3	-0.723
B4	-0.726
B5	-0.726
B6	-0.73
B7	-0.73
B8	-0.734
B9	-0.734
B10	-0.739
B11	-0.75
B12	-0.75
B13	-0.751

Biological target: T2, CIRBP
Assay: as above

Binder	binding signal [z-score]
B1	-0.307
B2	0.339
B3	0.271
B4	0.233
B5	0.622
B6	0.833
B7	0.311
B8	-0.779
B9	-1.18
B10	0.114
B11	-0.331
B12	-0.579
B13	-0.803

Biological target: T3, DHX36
Assay: as above

Binder	binding signal [z-score]
B1	-0.0528
B2	-0.795
B3	-0.0599
B4	-1.44
B5	-0.368
B6	0.722
B7	-0.681
B8	0.879
B9	-0.093
B10	0.116
B11	-0.568
B12	0.914
B13	-0.574
